# Rows were chosen to be rich in hits. Some 1.3% of all compounds tested hit in one or more screens of this group.
# ARNT TACC3 PPI: disruptors of human ARNT/TACC3 interaction; Q9Y6A5; AlphaScreen His-ARNT PAS-B/GST-TACC3 binding, luminescence; TACC3 fragment carries E629A point mutation; inhibition, % at 9.99 µM; actives 0.66% (n = 390,000);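 active means mean inhibition of replicates at least 50% and at least half of replicates each reaching 50%; inconclusive means half or more replicates reach 50% but mean below 50%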
# MLL AF4-AF9 inh: MLL-AF4/AF9 protein interaction inhibition. P42568. AlphaScreen, biotin-AF4 peptide binding to FLAG-AF9. inhibition, % at 10 µM. actives 0.47% (n = 350,000). AID 651704;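 active means every replicate reaching a set inhibition limit, whatever the replicate mean, cut at about 25% in these data; inconclusive means mean inhibition reaches that limit but some replicates miss it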
# S100A4 inh HTS: blocks human S100A4 binding to myosin IIA peptide | P26447 | S100A4/TAMRA-MyoIIA peptide fluorescence polarization | inhibition, % at 10.7 µM | actives 0.14% (n = 360,000) | AID 652163;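 active means mean inhibition of at least 70% across replicates, with every replicate also reaching that level; inconclusive means mean inhibition reaches 70% but some replicates fall short; inactive means mean inhibition below 70%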
#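 Material: S100A4 monomer protein | Medium: HEPES pH 7.2 with CaCl2, KCl, NaCl, DTT, Triton | Reagent: Labelled myosin peptide probe, 5 nM | Doses: One dose per compound | Times: 5 min incubation before reading | Benchmarks: Neutral control DMSO, positive control TFP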
# E-sel inducer: E-selectin induction on HUVECs; actives 0.37% (n = 260,000); activation, % at 7.58 µM; HUVEC E-selectin immunofluorescence imaging; normalized: neutral wells 0, TNF-alpha wells 100;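 active means mean E-selectin-positive cell signal at least 10% of the positive control, reached in at least 60% of replicates, without over 20% cell loss; inconclusive means no rule given, readout overlaps actives, possibly toxicity-flagged; inactive means the rest, including those meeting only one limit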
#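 Material: HUVEC primary endothelial cells; Amount: 3,000 cells per well; Dosing: single concentration; Medium: EGM-2 growth medium on 0.1% gelatin-coated wells; Read-out basis: percent E-selectin-positive cells; Signal: immunofluorescence imaging; Control set: TNF-alpha, DMSO.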
# ERAP1 inh: blocks human ERAP1 aminopeptidase activity; Q9NZ08; recombinant ERAP1, Leu-AMC fluorescence, 60 min; inhibition, % at 10.7 µM; actives 0.15% (n = 340,000); AID 652197;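 active means mean replicate inhibition of at least 30%, or all replicates individually reaching that 30% level; inactive means mean below 30% and not every replicate reaching it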
# Yeast UUG start: yeast start codon fidelity modulation | S. cerevisiae UUG-firefly luciferase reporter, luminescence/redox ratio | activity score, % at 18.7 µM | hit rate 0.13% among 350,000 | AID 602363;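 active means replicate mean at a twofold rise or more, about +100% in these data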;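 further: firefly luciferase made from a UUG start codon reports start codon fidelity; reporter light over untreated wells divided by growth signal over untreated wells; some hits fall short of that in this replicate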
# A number is an active result; . = inactive; ? = inconclusive; / = no result.
SMILES,ARNT TACC3 PPI,MLL AF4-AF9 inh,S100A4 inh HTS,E-sel inducer,ERAP1 inh,Yeast UUG start
CCC[C@@H](CN1CCC[C@H]1CN1C(N)=NC[C@@H]1Cc1ccccc1)N1C[C@@H]([C@H](C)CC)N(CCc2ccc(Cl)c(Cl)c2)C1=N,.,/,/,/,/,.
CCC[C@@H](CN1CCC[C@H]1CN1C(N)=NC[C@H]1CC(C)C)N1C[C@@H](Cc2ccccc2)N(CCc2ccc(Cl)c(Cl)c2)C1=N,.,33,.,.,.,.
O=C(Cc1ccccn1)NCC[C@H]1CC[C@@H](NC(=O)Nc2ccccc2)[C@H](CO)O1,.,.,.,.,.,.
CC(C)[C@@H](C(=O)NC1CCN(Cc2ccccc2)CC1)N1C(=O)N2CCc3c([nH]c4ccccc34)[C@@]2(C)C1=O,.,27,.,/,.,.
O=C(C[C@H]1CC[C@H]2[C@@H](COC[C@@H](O)CN2S(=O)(=O)c2ccc(F)cc2)O1)NCc1ccncn1,.,.,.,.,.,.
COCC(=O)N(C)C[C@H]1Oc2cc(C3=CCCCC3)ccc2S(=O)(=O)N([C@H](C)CO)C[C@@H]1C,.,.,.,.,.,.
Nc1ccc(N2CCN(c3ccc(Cl)c(Cl)c3)CC2)cc1,.,27,.,/,.,/
CCOC(=O)C1(Cc2cccc(OC)c2)CCCN(Cc2c(C)nn(C(C)C)c2C)C1 (stereo not drawn),.,.,.,.,.,.
CCOC(=O)C1(Cc2cccc(OC)c2)CCN(Cc2ccccc2)CC1,.,.,.,33,.,.
CCOC(=O)C1(Cc2cccc(OC)c2)CCCN(Cc2cc(C(C)C)n[nH]2)C1 (stereo not drawn),.,.,.,28,.,.
COCCCn1c(=N)c(C(N)=S)cc2c(=O)n3cccc(C)c3nc21,.,.,.,/,.,.
CCOCCCn1c(=N)c(S(=O)(=O)c2ccccc2)cc2c(=O)n3cc(C)ccc3nc21,.,26,.,/,.,.
Cc1ccc2nc3c(cc(C(N)=S)c(=N)n3CCCOC(C)C)c(=O)n2c1,.,.,?,/,33,.
O=C(N/N=C/c1cc(Br)c(O)c(Br)c1O)c1cccnc1,70,.,.,/,.,.
O=C(N/N=C/c1c(O)ccc2ccccc12)c1cccnc1,59,.,.,.,.,.
O=C(N/N=C/c1cc(O)ccc1Br)c1cccnc1,85,.,.,.,.,.
O=C(N/N=C/c1cc2c(cc1Br)OCO2)c1cccnc1,/,.,.,/,.,/
O=C(C[C@H]1CC[C@@H]2[C@H](COC[C@H](O)CN2C(=O)Nc2ccc(Cl)c(Cl)c2)O1)NC1CCC1,.,.,.,.,.,.
COCC(=O)N1C[C@@H](C)[C@H](OC)CN(C)C(=O)c2ccc(NC(=O)c3cnccn3)cc2OC[C@@H]1C,/,.,.,.,.,/
COc1ccc(Nc2nc(N)c([N+](=O)[O-])c(N3CCOCC3)n2)cc1,.,.,.,.,.,.
CN(C)c1ccc(Nc2nc(N)c([N+](=O)[O-])c(N3CCOCC3)n2)cc1,.,30,.,.,.,/
COc1ccccc1NC(=O)N1[C@@H]2CNC[C@H]1[C@@H]2c1ccc(-c2ccc(C#N)cc2)cc1,/,.,.,.,.,/
N#Cc1cccc(-c2ccc(C3[C@@H]4CN(C(=O)Nc5ccc6c(c5)OCO6)C[C@H]3N4)cc2)c1 (stereo partly drawn),/,.,.,.,.,/
O=C(Nc1ccc2c(c1)OCO2)N1C[C@@H]2N[C@H](C1)C2c1ccc(-c2ccccc2)cc1 (stereo partly drawn),/,31,.,.,/,/
O=C(NCC[C@@H]1CC[C@@H](NC(=O)C2CCOCC2)[C@H](CO)O1)c1ccc(F)cc1,/,.,.,.,.,.
SMILES,ARNT TACC3 PPI,MLL AF4-AF9 inh,S100A4 inh HTS,E-sel inducer,ERAP1 inh,Yeast UUG start
O=C(C[C@@H]1C[C@H]2c3cc(NS(=O)(=O)c4ccccc4)ccc3O[C@H]2[C@@H](CO)O1)N1CCOCC1,/,.,111,.,.,/
O=C(C[C@H]1C[C@@H]2c3cc(NC(=O)C4CCOCC4)ccc3O[C@@H]2[C@H](CO)O1)NCCN1CCCCC1,.,.,115,.,.,/
COCC(=O)Nc1ccc2c(c1)[C@@H]1C[C@@H](CC(=O)N3CCOCC3)O[C@@H](CO)[C@@H]1O2,.,.,86,.,.,/
CCCN(C)C[C@H]1Oc2cc(C#CCOC)ccc2S(=O)(=O)N([C@@H](C)CO)C[C@H]1C,.,.,.,.,.,.
C[C@H](CO)N1C[C@H](C)[C@H](CN(C)C(=O)NC2CCCCC2)Oc2ccc(NC(=O)CCCN(C)C)cc2C1=O,.,.,.,.,.,/
C[C@H]1CCCCO[C@@H](CN(C)C(=O)Nc2ccc(F)cc2)[C@@H](C)CN([C@@H](C)CO)C(=O)c2cc(NC(=O)c3ccncc3)ccc2O1,.,.,.,.,.,.
CN(C)C(CNC(=O)CCc1nc2cc(Cl)ccc2n(Cc2ccccc2)c1=O)c1ccccc1 (stereo not drawn),.,.,190,.,.,.
CCNC(=S)NNC(=O)CCc1nc2cc(Cl)ccc2n(Cc2ccccc2)c1=O,.,.,.,/,.,.
CC1(C)Cc2ccccc2-c2nc3n(c(=O)c21)CCCS3,/,.,.,/,.,/
CC1(C)Cc2ccccc2-c2nc3n(c(=O)c21)CCS3,.,.,.,77,.,/
O=C(C[C@H]1CC[C@H]2[C@@H](COC[C@H](O)CN2S(=O)(=O)c2ccc(Cl)cc2)O1)NCCN1CCCCC1,/,.,.,.,.,/
CC(C)N1CCN(c2ccc(OC[C@H]3CO[C@](Cn4cncn4)(c4ccc(Cl)cc4Cl)O3)cc2)CC1,.,36,.,.,.,.
C[C@H]1CCCCO[C@@H](CN(C)S(=O)(=O)c2ccccc2)[C@@H](C)CN([C@@H](C)CO)C(=O)c2cc(NS(C)(=O)=O)ccc2O1,.,.,.,.,.,.
CCN(CC)c1ccc(NC(=O)Cn2cc3c(n2)CCC(C)C3)c(C)c1 (stereo not drawn),49,.,.,/,.,.
COc1ccc(C(=O)N/C(=C\c2cn(C)c3ccccc23)C(=O)N2CCN(C)CC2)cc1,.,.,.,.,.,.
CCn1cc(/C=C(\NC(=O)c2ccc(OC)cc2)C(=O)N2CCN(C)CC2)c2ccccc21,48,.,.,/,.,.
CC(=O)Nc1ccc(OCCC[n+]2ccccc2)cc1,.,31,.,/,.,/
CC1(C)Cc2c(sc3ncn(N)c(=N)c23)CO1,.,/,/,/,/,.
CC1(C)Cc2c(sc3ncnc(NN)c23)CO1,47,.,.,/,.,.
Nc1c(Br)cc(Br)c2c1C(=O)c1c(cccc1S(=O)(=O)O)C2=O,.,.,.,124,.,.
C[C@H](CO)N1C[C@H](C)[C@@H](CN(C)C(=O)CC2CC2)Oc2ncc(C#C[C@@H](C)O)cc2C1=O,.,.,.,.,.,.

# Screening data as filed in PubChem.
